{"sequences": {"note": "By UniProt entry, the sequences of proteins in these tests, tags left out. Where a name states a change or a piece, a line headed by the entry shows the natural chain unless it says otherwise.", "UniProt Q02768": "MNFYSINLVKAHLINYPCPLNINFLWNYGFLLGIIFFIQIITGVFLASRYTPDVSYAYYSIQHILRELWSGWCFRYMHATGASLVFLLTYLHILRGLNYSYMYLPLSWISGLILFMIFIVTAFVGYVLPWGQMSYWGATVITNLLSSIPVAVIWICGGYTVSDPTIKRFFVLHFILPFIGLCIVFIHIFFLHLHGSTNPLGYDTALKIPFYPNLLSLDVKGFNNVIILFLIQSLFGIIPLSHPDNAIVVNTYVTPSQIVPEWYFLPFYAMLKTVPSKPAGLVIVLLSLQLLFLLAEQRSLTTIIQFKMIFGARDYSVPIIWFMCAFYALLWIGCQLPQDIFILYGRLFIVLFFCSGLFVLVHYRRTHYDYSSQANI"}, "source": "paper PMC11522906", "about": "“Pyrimidine Azepine Targets the Plasmodium bc1 Complex and Displays Multistage Antimalarial Activity” (JACS Au, 2024)", "target": "T1, cytochrome b (Pfbc1 complex) (Plasmodium falciparum, UniProt Q02768)", "T1 construct": "gene MT-CYB; native bc1 complex in DDM-treated mitochondrial fraction from P. falciparum Dd2_R539T; with other subunits of the cytochrome bc1 complex", "test": "bc1 activity in extracted parasite mitochondria (decylubiquinol-driven cytochrome c reduction)", "assay_type": "biochemical", "note": "pEC50: −log10 of the molar value.", "data": [{"compound": "O=C1C(O)=C([C@H]2CC[C@H](c3ccc(Cl)cc3)CC2)C(=O)c2ccccc21", "note": "[ATQ, atovaquone]", "values": [{"measurement": "pEC50", "value": 7.79}]}]}
